# Experimental data from US12188086B2, “Nucleotide analogues and use thereof for nucleic acid sequencing and analysis preliminary class” (The Trustees of Columbia University in the City of New York, priority 2018, dated 2025).
# Assay: THP cleavage of SS linker / 3′ blocking group on extended primer (MALDI-TOF MS)
# Type: physicochemical
# Description: Tris(hydroxypropyl)phosphine (THP) (1 μL, 1 mM) was added to the azo cleaved extended primer (9 μL, 15 μM) (E8TT+3′-O-t-butyl-SS-dTMP-PEG4-aniline, 6009.44 Da). […] After the spin column-based nucleic acid purification (ZymoPURE Oligo Clean & Concentrator), the product was confirmed by MALDI-TOF MS: 5881.4 Da (calc'd: 5874.9 Da). […]
substance,measurement,value
ddGTP-7-SS-Cy5,cleavage of SS linker on extended primer,complete cleavage
